Experimental data taken from PubChem BioAssay AID1565 (Sanford-Burnham Center for Chemical Genomics, 2009).
Only a part is listed here, and it is no random draw. Calls of active or inactive are those of the source. Cut-off read from the data, not from the text of the source: active = inhibition above about 60%; inactive = the rest.

Chains of the proteins cited; added tags and fusions are not shown.
UniProt Q8TCT1, whole entry: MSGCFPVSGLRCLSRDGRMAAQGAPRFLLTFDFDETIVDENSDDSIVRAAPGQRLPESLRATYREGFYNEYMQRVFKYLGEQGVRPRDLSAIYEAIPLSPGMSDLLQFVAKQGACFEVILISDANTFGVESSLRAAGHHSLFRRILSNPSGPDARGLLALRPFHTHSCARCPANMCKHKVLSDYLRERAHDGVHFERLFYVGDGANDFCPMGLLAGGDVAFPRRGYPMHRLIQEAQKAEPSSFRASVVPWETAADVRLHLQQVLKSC

molecular target: Phosphoethanolamine/phosphocholine phosphatase (Homo sapiens) (UniProt Q8TCT1); experiment: PubChem AID 1565; conditions: recombinant PHOSPHO1, absorbance phosphatase assay; at 13.3 µM; hits give high values

Compound | inhibition
CCN(CC)CCCOC(=O)C(O)(c1ccccc1)c1ccccc1 | inactive: 12.3%
Cc1cccc(C)c1OP(C)(N)=O (configuration not stated) | inactive: 19.5%
CC(C)(C)c1ccc(OP(C)(=O)Nc2ccc(SC(F)(F)F)cc2)cc1 (configuration not stated) | inactive: -11.9%
O=[N+]([O-])c1ccc2c(c1)C=Nc1ccccc1O2 | inactive: -13.4%
CCOC(=O)c1ccc(NP(C)(=O)Oc2ccccc2)cc1 (configuration not stated) | inactive: 0.3%
Cc1ccc(NP(C)(=O)Oc2ccccc2)c(C)c1 (configuration not stated) | inactive: -34.4%
COc1ccccc1OP(C)(=O)Nc1ccc(C)cc1 (configuration not stated) | inactive: -1.6%
COc1ccc(OP(C)(=O)Nc2cccc(F)c2)cc1 (configuration not stated) | inactive: 11.6%
COc1ccccc1OP(C)(=O)Nc1cc(Cl)ccc1C (configuration not stated) | inactive: 15.8%
Cc1cc(C)cc(OP(C)(N)=O)c1 (configuration not stated) | inactive: 16.3%
CP(=S)(Nn1cnnc1)Oc1ccccc1 (configuration not stated) | inactive: -6.7%
COc1ccccc1OP(C)(=O)Nc1ccccc1 (configuration not stated) | inactive: -2.7%
CP(=O)(Nc1ccccc1Br)Oc1ccccc1 (configuration not stated) | inactive: -2%
CP(=O)(Oc1ccccc1)OC(c1ccccc1)C(F)(F)F (configuration not stated) | inactive: 8.1%
CP(=O)(Nc1ccc(SC(F)(F)F)cc1)Oc1ccc(Cl)cc1 (configuration not stated) | inactive: -1.5%
Cc1cccc(C)c1OP(C)(=O)Nc1ccc(SC(F)(F)F)cc1 (configuration not stated) | inactive: 0.8%
Cc1cc(C)cc(OP(C)(=O)Nc2ccc(SC(F)(F)F)cc2)c1 (configuration not stated) | inactive: -14.5%
CP(=O)(NC(=O)Nc1ccccc1)Oc1ccccc1 (configuration not stated) | inactive: -8.1%
CCc1ccc(OP(C)(=O)N2CCN(c3ccc([N+](=O)[O-])cc3)CC2)cc1 (configuration not stated) | inactive: 36.8%
CCOP(C)(=S)SCC(=O)NC(C)C(=O)O (configuration not stated) | inactive: 14.5%
CCOC(=O)c1ccc(NP(C)(=O)Oc2ccc(OC)cc2)cc1 (configuration not stated) | inactive: 1.1%
CP(=O)(Nc1ccccn1)Oc1ccc(Cl)cc1 (configuration not stated) | inactive: -21.8%
O=[N+]([O-])c1cc([N+](=O)[O-])c(-n2nnc3ccccc32)c([N+](=O)[O-])c1 | inactive: 47.6%
Cc1nc2ccc3ccccc3c2s1.O=[N+]([O-])c1cc([N+](=O)[O-])c(O)c([N+](=O)[O-])c1 | inactive: 6.7%
CCOC(=O)C(CC)C1=NC(C)(C)Cc2ccccc21.O=[N+]([O-])c1cc([N+](=O)[O-])c(O)c([N+](=O)[O-])c1 (configuration not stated) | inactive: 38.6%
O=[N+]([O-])c1cc([N+](=O)[O-])c(Nc2nnnn2CCO)c([N+](=O)[O-])c1 | inactive: 14.9%
CN1CCCCC1COC(=O)C1(O)c2ccccc2CCc2ccccc21 (configuration not stated) | inactive: 1.9%
